Laboratory results: patent US20260207614A1, “IRAK4 DEGRADERS AND USES THEREOF” (Kymera Therapeutics, Inc., priority 2022, published 2026)
Like-named read-outs stand apart in the source and are kept apart here.

How the values were obtained:
[1] = dog NOAEL vs predicted human AUC
[2] = rat NOAEL vs predicted human AUC

Cn1c(=O)n([C@@H]2CCC(=O)NC2=O)c2cccc(C#CCOC3CCN(C[C@H]4CC[C@H](n5cc(NC(=O)c6cnn7ccc(N8C[C@H]9C[C@@H]8CO9)nc67)c(C(F)F)n5)CC4)CC3)c21 [Compound A, 5-((1R,4R)-2-oxa-5-azabicyclo[2.2.1]heptan-5-yl)-N-(3-(difluoromethyl)-1-((1r,4R)-4-((4-((3-(1-(2,6-dioxopiperidin-3-yl)-3-methyl-2-oxo-2,3-dihydro-1H-benzo[d]imidazol-4-yl)prop-2-yn-1-yl)oxy)piperidin-1-yl)methyl)cyclohexyl)-1H-pyrazol-4-yl)pyrazolo[1,5-a]pyrimidine-3-carboxamide]
exposure safety margin for the starting dose of 25 mg based on AUC at NOAEL [1]: 159 fold
exposure safety margin for the starting dose of 25 mg based on AUC at NOAEL [2]: 79 fold
